{
  "source": "patent US8875704B2",
  "about": "“Nasal administration” (priority 2007, dated 2014)",
  "origin": "cited, not measured here",
  "key": {"[1]": {"conditions": "powders in a starch formulation, rabbits; cited from earlier work"}, "[2]": {"conditions": "intranasal, particularly after multiple administrations; cited from earlier work"}, "[3]": {"conditions": "intranasal, dimethyl beta cyclodextrin as absorption enhancer, rabbits; cited from earlier work"}},
  "data": [
    {"substance": "insulin", "values": [
      {"measurement": "bio-availability, deposition posterior to the nasal valve versus anterior deposition", "setting": "[1]", "result": "lower bio-availability"},
      {"measurement": "bio-availability of powder formulations with longer residence times", "setting": "[2]", "result": "reduced bio-availability"},
      {"measurement": "peak plasma concentration Cmax, powder versus liquid formulation", "setting": "[3]", "result": "greater"}
    ]}
  ]
}
